For one test, the system named is SJSA-1. As to the kind of experiment: Protocol B: CellTiter-Glo cell viability assay. The conditions noted are these: read-out: SJSA1 IC50 (μM) (Protocol B); Protocol B.
As a reminder, the IC50 is the point on the concentration scale where inhibition reaches its midpoint. For “1-({[(1R)-1-(4-chlorophenyl)-2-[(5-chloropyridin-2-yl)methyl]-7-fluoro-5-[1-hydroxy-1-(1-methylpiperidin-4-yl)ethyl]-3-oxo-2,3-dihydro-1H-isoindol-1-yl]oxy}methyl)cyclopropane-1-carboxamide [Example 305]”, the IC50 is 1.9 µM.
Same read-out and setting: the same measure for “1-({[(1R)-1-(4-chlorophenyl)-2-[(5-chloropyridin-2-yl)methyl]-7-fluoro-5-[1-hydroxy-1-(1-methylpiperidin-4-yl)ethyl]-3-oxo-2,3-dihydro-1H-isoindol-1-yl]oxy}methyl)cyclopropane-1-carboxamide [Example 306]”: 6.6 µM; for “1-({[(1R)-2-[(4-chloro-2-methanesulfonylphenyl)methyl]-1-(4-chlorophenyl)-7-fluoro-5-(2-hydroxypropan-2-yl)-3-oxo-2,3-dihydro-1H-isoindol-1-yl]oxy}methyl)cyclopropane-1-carboxamide [Example 35]”: 0.8 µM.
Same read-out and setting: the same measure for “1-({[(1R)-2-[(5-chloro-1-oxo-1λ^5-pyridin-2-yl)methyl]-1-(4-chlorophenyl)-7-fluoro-5-[1-hydroxy-1-(1-methyl-1H-pyrazol-4-yl)ethyl]-3-oxo-2,3-dihydro-1H-isoindol-1-yl]oxy}methyl)cyclopropane-1-carbonitrile [Example 408]”: 0.75 µM; for “2-({[1-({[(1R)-1-(4-chlorophenyl)-2-[(5-chloropyridin-2-yl)methyl]-7-fluoro-5-(2-hydroxypropan-2-yl)-3-oxo-2,3-dihydro-1H-isoindol-1-yl]oxy}methyl)cyclopropyl]methyl}amino)-N-methylacetamide [Example 155]”: 0.31 µM.
Same read-out and setting: in the case of “2-{[1-({[(1R)-1-(4-Chlorophenyl)-2-[(5-chloropyridin-2-yl)methyl]-7-fluoro-5-(2-hydroxypropan-2-yl)-3-oxo-2,3-dihydro-1H-isoindol-1-yl]oxy}methyl)cyclopropyl]methoxy}acetic acid [Example 144]” it was 2.9 µM; in that of “2-{[(1R)-1-(4-chlorophenyl)-7-fluoro-1-({1-[hydroxydideuteromethyl]cyclopropyl}dideuteromethoxy)-5-(2-hydroxybutan-2-yl)-3-oxo-2,3-dihydro-1H-isoindol-2-yl]methyl}pyrimidine-5-carbonitrile [Example 577]”, 0.079 µM.
For “2-{[(1R)-1-(4-chlorophenyl)-7-fluoro-1-[(3-fluorooxetan-3-yl)methoxy]-5-[1-hydroxy-1-(1-methyl-1H-imidazol-4-yl)propyl]-3-oxo-2,3-dihydro-1H-isoindol-2-yl]methyl}pyrimidine-5-carbonitrile [Example 471]”, the IC50 amounted to 3.5 µM.
Same read-out and setting: the same measure for “2-{[(1R)-1-(4-chlorophenyl)-7-fluoro-5-[1-hydroxy-1-(1-methyl-1H-imidazol-4-yl)propyl]-1-[(trans-3-hydroxycyclopentyl)oxy]-3-oxo-2,3-dihydro-1H-isoindol-2-yl]methyl}pyrimidine-5-carbonitrile [Example 461]”: 0.091 µM; for “2-{[(1R)-1-(4-chlorophenyl)-7-fluoro-5-[1-hydroxy-1-(1-methyl-1H-imidazol-4-yl)propyl]-1-[(trans-3-hydroxycyclopentyl)oxy]-3-oxo-2,3-dihydro-1H-isoindol-2-yl]methyl}pyrimidine-5-carbonitrile [Example 479]”: 0.079 µM; for “2-{[(1R)-1-(4-chlorophenyl)-7-fluoro-5-[1-hydroxy-1-(1-methyl-1H-imidazol-4-yl)propyl]-1-[(trans-3-hydroxycyclopentyl)oxy]-3-oxo-2,3-dihydro-1H-isoindol-2-yl]methyl}pyrimidine-5-carbonitrile [Example 480]”: 3.7 µM.
The same measure, in the same setting: the same measure for “2-{[(1R)-1-(4-chlorophenyl)-7-fluoro-5-[1-hydroxy-1-(1-methyl-1H-imidazol-4-yl)propyl]-3-oxo-1-[trans-3-(hydroxymethyl)cyclobutoxy]-2,3-dihydro-1H-isoindol-2-yl]methyl}pyrimidine-5-carbonitrile [Example 481]”: 0.33 µM; for “2-{[(1R)-1-(4-chlorophenyl)-7-fluoro-5-[1-hydroxy-1-(1-methyl-1H-imidazol-4-yl)propyl]-3-oxo-1-[trans-3-(hydroxymethyl)cyclobutoxy]-2,3-dihydro-1H-isoindol-2-yl]methyl}pyrimidine-5-carbonitrile [Example 482]”: 5 µM.
Still for that read-out and setting: in the case of “4-{[(1R)-1-(4-chlorophenyl)-1-{[1-(hydroxymethyl)cyclopropyl]methoxy}-5-(2-hydroxypropan-2-yl)-3-oxo-2,3-dihydro-1H-isoindol-2-yl]methyl}benzonitrile [Example 25]” it was 0.09 µM.
In the case of “6-{[(1R)-1-(4-Chlorophenyl)-5-(1-cyclopropyl-1-hydroxyethyl)-7-fluoro-1-{[1-(hydroxymethyl)cyclopropyl]methoxy}-3-oxo-2,3-dihydro-1H-isoindol-2-yl]methyl}pyridine-3-carbonitrile [Example 414]”, the IC50 amounted to 0.11 µM.
The same measure, in the same setting: in the case of “6-{[(1R)-1-(4-chlorophenyl)-5-[cyclopropyl(hydroxy)(1-methyl-1H-imidazol-4-yl)methyl]-7-fluoro-3-oxo-1-[(3S)-oxolan-3-yloxy]-2,3-dihydro-1H-isoindol-2-yl]methyl}pyridine-3-carbonitrile [Example 433]” it was 1.5 µM; in that of “6-{[(1R)-1-(4-chlorophenyl)-5-[cyclopropyl(hydroxy)(1-methyl-1H-imidazol-4-yl)methyl]-7-fluoro-3-oxo-1-[(3S)-oxolan-3-yloxy]-2,3-dihydro-1H-isoindol-2-yl]methyl}pyridine-3-carbonitrile [Example 434]”, 0.47 µM; in that of “6-{[(1R)-1-(4-chlorophenyl)-7-fluoro-5-[1-hydroxy-1-(1-methyl-1H-imidazol-4-yl)propyl]-1-[(2R)-2-hydroxypropoxy]-3-oxo-2,3-dihydro-1H-isoindol-2-yl]methyl}pyridine-3-carbonitrile [Example 437]”, 2.5 µM.
With “6-{[(1R)-1-(4-chlorophenyl)-7-fluoro-5-[1-hydroxy-1-(1-methyl-1H-imidazol-4-yl)propyl]-1-[(2R)-2-hydroxypropoxy]-3-oxo-2,3-dihydro-1H-isoindol-2-yl]methyl}pyridine-3-carbonitrile [Example 438]”, the IC50 was determined as 0.34 µM.
The same measure, in the same setting: the same measure for “6-{[(1R)-1-(4-chlorophenyl)-7-fluoro-5-[1-hydroxy-1-(1-methyl-1H-imidazol-4-yl)propyl]-3-oxo-1-[(3S)-oxolan-3-yloxy]-2,3-dihydro-1H-isoindol-2-yl]methyl}pyridine-3-carbonitrile [Example 365]”: 0.1 µM; for “6-{[(1R)-1-(4-chlorophenyl)-7-fluoro-5-[1-hydroxy-1-(1-methyl-1H-imidazol-4-yl)propyl]-3-oxo-1-[(3S)-oxolan-3-yloxy]-2,3-dihydro-1H-isoindol-2-yl]methyl}pyridine-3-carbonitrile [Example 366]”: 2.7 µM.
Same read-out and setting: the same measure for “6-{[(1R)-1-(4-chlorophenyl)-7-fluoro-5-[1-hydroxy-1-(1-methyl-1H-pyrazol-4-yl)ethyl]-1-[(1-hydroxycyclopropyl)methoxy]-3-oxo-2,3-dihydro-1H-isoindol-2-yl]methyl}pyridine-3-carbonitrile [Example 340]”: 2 µM; for “6-{[(1R)-1-(4-chlorophenyl)-7-fluoro-5-[1-hydroxy-1-(1-methyl-1H-pyrazol-4-yl)ethyl]-1-[(1-hydroxycyclopropyl)methoxy]-3-oxo-2,3-dihydro-1H-isoindol-2-yl]methyl}pyridine-3-carbonitrile [Example 341]”: 0.5 µM.
Same read-out and setting: in the case of “(3R)-2-[(5-chloro-3-methanesulfonylpyridin-2-yl)methyl]-3-(4-chlorophenyl)-4-fluoro-6-[1-hydroxy-1-(1-methyl-1H-pyrazol-4-yl)ethyl]-3-methoxy-2,3-dihydro-1H-isoindol-1-one [Example 372]” it was 2.6 µM; in that of “(3R)-2-[(5-chloro-3-methanesulfonylpyridin-2-yl)methyl]-3-(4-chlorophenyl)-4-fluoro-6-[1-hydroxy-1-(1-methyl-1H-pyrazol-4-yl)ethyl]-3-methoxy-2,3-dihydro-1H-isoindol-1-one [Example 373]”, 0.26 µM; in that of “(3R)-3-(4-Chlorophenyl)-2-[(4-chlorophenyl)methyl]-6-(2-hydroxypropan-2-yl)-3-{[1-(methoxymethyl)cyclopropyl]methoxy}-2,3-dihydro-1H-isoindol-1-one [Example 31]”, 0.76 µM.
Regarding “(3R)-3-(4-chlorophenyl)-2-[(1S)-1-(4-chlorophenyl)ethyl]-3-(2,3-dihydroxy-2-methylpropoxy)-6-(2-hydroxypropan-2-yl)-2,3-dihydro-1H-isoindol-1-one [Example 6]”, the IC50 amounted to 2.5 µM.
Same read-out and setting: in the case of “(3R)-3-(4-chlorophenyl)-2-[(1S)-1-(4-chlorophenyl)ethyl]-3-{[(3R,4S)-4-hydroxyoxolan-3-yl]oxy}-6-(2-hydroxypropan-2-yl)-2,3-dihydro-1H-isoindol-1-one [Example 46]” it was 0.76 µM.
On the same count and under the same terms, in the case of “(3R)-3-(4-chlorophenyl)-2-[(4-chlorophenyl)methyl]-6-(1,2-dihydroxypropan-2-yl)-3-{[1-(hydroxymethyl)cyclopropyl]methoxy}-2,3-dihydro-1H-isoindol-1-one [Example 8]” it was 3.8 µM; in that of “(3R)-3-(4-chlorophenyl)-2-[(5-chloropyridin-2-yl)methyl]-4-fluoro-6-[1-hydroxy-1-(1-methanesulfonylpiperidin-4-yl)ethyl]-3-methoxy-2,3-dihydro-1H-isoindol-1-one [Example 294]”, 0.077 µM.

Still in this test, the particulars now being: read-out: SJSA1 IC50 (μM) (Protocol B); SJSA-1, CellTiter-Glo, 72 hrs.
For “(3R)-2-[(4-Chloro-2-methanesulfonylphenyl)methyl]-3-(4-chlorophenyl)-6-(1,2-dihydroxypropan-2-yl)-4-fluoro-3-{[1-(hydroxymethyl)cyclopropyl]methoxy}-2,3-dihydro-1H-isoindol-1-one [Example 65]”, the IC50 amounted to 0.26 µM.

Values taken from patent US20230338337A1, “BIOMARKERS FOR CANCER THERAPY USING MDM2 ANTAGONISTS” (OTSUKA PHARMACEUTICAL CO., LTD., priority 2019, published 2023).
